The values that follow are results of earlier work, collected in article PMC3577726, “Osteocalcin Induces Release of Glucagon-Like Peptide-1 and Thereby Stimulates Insulin Secretion in Mice” (PLoS ONE, 2013).

The conditions of this series: cited from earlier work.

Insulin: the “Rate of absorption from the intestine into the bloodstream” value is reported as roughly 5%.
On to vasopressin, for which the “Rate of absorption from the intestine into the bloodstream” value is roughly 5%.
